Experimental findings from EP4843985A1, “TRIAZOLOPYRIMIDINE DERIVATIVE, PREPARATION METHOD THEREFOR AND USE THEREOF” (dated 2026) are described below.

Protein sequences, listed by entry. Tags and fused reporters are not part of them. Residues count along the entry.
UniProt Q14191, 517-1238 limits assumed: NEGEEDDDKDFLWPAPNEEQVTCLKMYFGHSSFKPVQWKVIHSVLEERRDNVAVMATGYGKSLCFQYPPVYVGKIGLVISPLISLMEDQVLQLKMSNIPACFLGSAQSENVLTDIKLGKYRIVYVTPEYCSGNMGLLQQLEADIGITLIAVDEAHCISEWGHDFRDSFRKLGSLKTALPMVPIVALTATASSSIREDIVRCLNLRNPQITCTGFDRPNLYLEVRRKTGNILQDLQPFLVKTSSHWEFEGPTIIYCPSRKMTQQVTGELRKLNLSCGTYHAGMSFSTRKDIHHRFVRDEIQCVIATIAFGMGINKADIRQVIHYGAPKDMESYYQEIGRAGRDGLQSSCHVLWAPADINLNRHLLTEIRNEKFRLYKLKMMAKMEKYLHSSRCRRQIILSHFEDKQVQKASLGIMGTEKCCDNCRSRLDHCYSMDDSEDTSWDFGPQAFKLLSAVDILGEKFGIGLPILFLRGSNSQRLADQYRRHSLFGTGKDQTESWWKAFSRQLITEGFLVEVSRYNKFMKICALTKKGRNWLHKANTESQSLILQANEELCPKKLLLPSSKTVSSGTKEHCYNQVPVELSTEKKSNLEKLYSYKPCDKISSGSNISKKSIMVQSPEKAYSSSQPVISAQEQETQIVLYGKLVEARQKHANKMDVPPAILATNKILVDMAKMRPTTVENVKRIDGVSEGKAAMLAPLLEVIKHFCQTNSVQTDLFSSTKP

Where two headings read alike, the source gives them in different places.

In assay [1] the target is WRN protein (AA N517-P1238) (Homo sapiens, UniProt Q14191). Briefly: In vitro WRN enzymatic activity assay (ADP-Glo ATPase assay). The note with it: read-out: ADP-Glo, 10 nM WRN enzyme, 3 hours pre-incubation at 25°C, ssDNA substrate. (In ADP-Glo the light output rises with the ADP produced.)
Assay [2] concerns SW48 (CRC, MSI). Briefly: Cell proliferation inhibition assay (CellTiter-Glo), SW48. For orientation: Cellular ATP, detected with luciferase, serves as a proxy for viable cell number.
The test system of assay [3] is SW620 (CRC, MSS). Briefly: Cell proliferation inhibition assay (CellTiter-Glo), SW620. To be noted: read-out: SW620 (CRC, MSS), 120 hours.
Setting [4] is: read-out: SW48 (CRC, MSI), 120 hours.

For `CCc1c(N2CCN(C(=O)c3ncnc(C)c3O)CC2)c(=O)n2nc(C3=CCC(c4cnc(C)s4)CC3)nc2n1CC(=O)Nc1ccc(C(F)(F)F)cc1Cl` (racemic), in assay [1], the IC50 amounted to 6.3 nM. `CCc1c(N2CCN(C(=O)c3ncnc(C)c3O)CC2)c(=O)n2nc(C3=CCN(C(=O)N4CCCC4)CC3)nc2n1CC(=O)Nc1ccc(C(F)(F)F)cc1Cl`: the IC50 in assay [1] was 5.52 nM; in assay [2] (setting [4]), 38.7 nM; in assay [3], over 10000 nM. Take `CCc1c(N2CCN(C(=O)c3ncnc(C)c3O)CC2)c(=O)n2nc(C3=CCCOCCC3)nc2n1CC(=O)Nc1ccc(C(F)(F)F)cc1Cl`: the IC50 in assay [1] stood at 5.56 nM. Regarding `CCc1c(N2CCN(C(=O)c3ncnc(C)c3O)CC2)c(=O)n2nc(C3=CCC(OC4CCCCC4)CC3)nc2n1CC(=O)Nc1ccc(C(F)(F)F)cc1Cl` (stereo not shown), the figures for the IC50 in assay [1], in assay [2] (setting [4]) and in assay [3] were 6.9 nM, 78.2 nM and over 10000 nM, respectively.

Consider `CCc1c(N2CCN(C(=O)c3ncnc(C)c3O)CC2)c(=O)n2nc(C3=CCOCC3)nc2n1CC(=O)Nc1cc(C(F)(F)F)c(C2CC2)s1`, for which the IC50 in assay [1] was found to be 2.51 nM. On to `CCc1c(N2CCN(C(=O)c3ncnc(C)c3O)CC2)c(=O)n2nc(C3=CCN(CC#N)CC3)nc2n1CC(=O)Nc1ccc(C(F)(F)F)cc1Cl`, for which, in assay [1], the IC50 worked out at 4.93 nM. For the compound `CCc1c(N2CCN(C(=O)c3ncnc(C)c3O)CC2)c(=O)n2nc(-c3ccc4occc4c3)nc2n1CC(=O)Nc1ccc(C(F)(F)F)cc1Cl`, the IC50 was 4.3 nM in assay [1], 53.7 nM in assay [2] (setting [4]) and over 10000 nM in assay [3]. With `CCc1c(N2CCN(C(=O)c3ncnc(C)c3O)CC2)c(=O)n2nc(C3=CCC(C(=O)N(C)C)CC3)nc2n1CC(=O)Nc1ccc(C(F)(F)F)cc1Cl` (single isomer, unassigned), the IC50 in assay [1] (listed as 94-peak 1) was 4.96 nM; in assay [1] (listed as 94-peak 2) it was 3.59 nM; in assay [2] (read-out: SW48 (CRC, MSI), 120 hours, listed as 94-peak 1) it was 30.5 nM; in assay [2] (read-out: SW48 (CRC, MSI), 120 hours, listed as 94-peak 2), 52.2 nM; in assay [3], over 10000 nM. Regarding `CCc1c(N2CCN(C(=O)c3ncnc(C)c3O)CC2)c(=O)n2nc(C3=CCC4(CC3)CN(C)C(=O)O4)nc2n1CC(=O)Nc1ccc(C(F)(F)F)cc1Cl` (racemic), in assay [1], the IC50 is 4.8 nM.

For the compound `CCc1c(N2CCN(C(=O)c3ncnc(C)c3O)CC2)c(=O)n2nc(C3=CCN(C(=O)CC(F)(F)F)CC3)nc2n1CC(=O)Nc1ccc(C(F)(F)F)cc1Cl`, the IC50 in assay [1] amounted to 5.41 nM. On the same count and under the same terms, with `CCc1c(N2CCN(C(=O)c3ncnc(C)c3O)CC2)c(=O)n2nc(C3=CCOCC3)nc2n1CC(=O)Nc1cnc(C(F)(F)F)s1` the figure was 16.8 nM. Same read-out and setting: the result for `CCc1c(N2CCN(C(=O)c3ncnc(C)c3O)CC2)c(=O)n2nc(C3=CCOCC3)nc2n1CC(=O)Nc1scc(C(F)(F)F)c1C1CC1` reads 18.7 nM; that for `CCc1c(N2CCN(C(=O)c3ncnc(C)c3O)CC2)c(=O)n2nc(C3=CCC(C(=O)NC)CC3)nc2n1CC(=O)Nc1ccc(C(F)(F)F)cc1Cl` (stereo not shown), 2.33 nM; that for `CCc1c(N2CCN(C(=O)c3ncnc(C)c3O)CC2)c(=O)n2nc(C3=CCC(S(C)(=O)=O)CC3)nc2n1CC(=O)Nc1ccc(C(F)(F)F)cc1Cl` (stereo not shown), 1.82 nM. On to `CCc1c(N2CCN(C(=O)c3cnn4cccc(O)c34)CC2)c(=O)n2nc(C3=CCOCC3)nc2n1CC(=O)Nc1ccc(C(F)(F)F)cc1Cl`, for which the IC50 in assay [1] is 81.5 nM. The same measure, in the same setting: the result for `Cc1ncnc(C(=O)N2CCN(c3c4n(c5nc(C6=CCOCCC6)nn5c3=O)C(C(=O)Nc3scc(C(F)(F)F)c3C)CC4C)[C@H]3CC[C@@H]32)c1O` (stereo partly shown) reads 1.16 nM; that for `CCc1c(N2CCN(C(=O)c3ncnc(C(C)C)c3O)CC2)c(=O)n2nc(C3=CCOCCC3)nc2n1CC(=O)Nc1ccc(C(F)(F)F)cc1Cl`, 2.31 nM. For `CCc1c(N2CCN(C(=O)c3ncnc(C)c3O)CC2)c(=O)n2nc(C3=CCN(C(=O)C(C)C)CC3)nc2n1CC(=O)Nc1ccc(C(F)(F)F)cc1Cl`, the IC50 in assay [1] is 10.2 nM; in assay [2] (setting [4]), 25 nM.

On to `CCc1c(N2CCN(C(=O)c3ncnc(C)c3O)CC2)c(=O)n2nc(C3=CCOCC3)nc2n1CC(=O)Nc1cc(C(F)(F)F)c(Cl)s1`, for which the IC50 in assay [1] is 3.7 nM. On the same count and under the same terms, the result for `CCc1c(N2CCN(C(=O)c3nn(C)c(=O)cc3O)CC2)c(=O)n2nc(C3=CCOCC3)nc2n1CC(=O)Nc1ccc(C(F)(F)F)cc1Cl` reads 4.49 nM; that for `CCc1c(N2CCN(C(=O)c3ncnc(C)c3O)CC2)c(=O)n2nc(C3=CCOCC3)nc2n1CC(=O)Nc1ccc(C(F)(F)F)c2c1CCO2`, 5.1 nM.

In the case of `CCc1c(N2CCN(C(=O)c3ncnc(C)c3O)CC2)c(=O)n2nc(C3=CCC4(CCOCC4)CC3)nc2n1CC(=O)Nc1ccc(C(F)(F)F)cc1Cl`, the IC50 in assay [1] was determined as 5.38 nM. Same read-out and setting: with `CCc1c(N2CCN(C(=O)c3cn4ccnc4cc3O)CC2)c(=O)n2nc(C3=CCOCC3)nc2n1CC(=O)Nc1ccc(C(F)(F)F)cc1Cl` the figure was 2.04 nM; with `[2H]C1([2H])CCC(c2nc3n4c(c(N5CCN(C(=O)c6ncnc(C)c6O)C(C)C5)c(=O)n3n2)C(C)CC4C(=O)Nc2scc(C(F)(F)F)c2C)=CCO1` (single isomer, unassigned) [306-P3], 2.49 nM. Same read-out and setting: the result for `CCc1c(N2CCN(C(=O)c3ncnc(C)c3O)CC2)c(=O)n2nc(C3=CCC4(CC3)COC4)nc2n1CC(=O)Nc1ccc(C(F)(F)F)cc1Cl` reads 4.84 nM; that for `CCc1c(N2CCN(C(=O)c3ncnc(C)c3O)CC2)c(=O)n2nc(C3=CCOCC3)nc2n1CC(=O)Nc1cc(C(F)(F)F)cn1C`, 7 nM. On to `CCc1c(N2CCN(C(=O)c3ncnc(C)c3O)CC2)c(=O)n2nc(C#CC3CC3)nc2n1CC(=O)Nc1ccc(C(F)(F)F)cc1Cl`, for which the IC50 in assay [1] was determined as 35 nM.

On to `CCc1c(N2CCN(C(=O)c3ncnc(OC)c3O)CC2)c(=O)n2nc(C3=CCOCCC3)nc2n1CC(=O)Nc1ccc(C(F)(F)F)cc1Cl`, for which, in assay [1], the IC50 was 1.67 nM.

In the case of `CCc1c(N2CCN(C(=O)c3ncnc(C)c3O)CC2)c(=O)n2nc(C3=CCN(C(=O)OCc4ccccc4)CC3)nc2n1CC(=O)Nc1ccc(C(F)(F)F)cc1Cl`, the IC50 in assay [1] came to 5.3 nM. The same measure, in the same setting: with `CCc1c(N2CCC3(CC2)CN(C(=O)c2ncnc(C)c2O)C3)c(=O)n2nc(C3=CCOCC3)nc2n1CC(=O)Nc1ccc(C(F)(F)F)cc1Cl` the figure was 17.7 nM. For `CCc1c(N2CCN(C(=O)c3ncnc(C)c3O)CC2)c(=O)n2nc(C3=CCN(C(=O)C4CC4)CC3)nc2n1CC(=O)Nc1ccc(C(F)(F)F)cc1Cl`, the IC50 is 11.5 nM in assay [1] and 37 nM in assay [2] (setting [4]). Consider `[2H]C1([2H])CCC(c2nc3n(CC(=O)Nc4cc(C(F)(F)F)sc4Cl)c(CC)c(N4CCN(C(=O)c5ncnc(C)c5O)CC4)c(=O)n3n2)=CCO1`, for which the IC50 in assay [1] came out at 1.87 nM. Same read-out and setting: with `CCc1c(N2CCN(C(=O)c3ncnc(C)c3O)CC2)c(=O)n2nc(C#Cc3ccn(C)n3)nc2n1CC(=O)Nc1ccc(C(F)(F)F)cc1Cl` the figure was 31.2 nM. On the same count and under the same terms, with `CCc1c(N2CCN(C(=O)c3ncnc(C)c3O)CC2)c(=O)n2nc(C3=CCC(OC4CC4)CC3)nc2n1CC(=O)Nc1ccc(C(F)(F)F)cc1Cl` (stereo not shown) the figure was 6.49 nM; with `[2H]C1([2H])CCC(c2nc3n4c(c(N5CCN(C(=O)c6ncnc(C)c6O)CC5)c(=O)n3n2)C(C)CC4C(=O)Nc2scc(C(F)(F)F)c2C)=CCO1` (single isomer, unassigned) [307-P3], 2.29 nM. As for `CCc1c(N2CCN(C(=O)c3ncnc(C)c3O)CC2)c(=O)n2nc(C3=CCN(c4nnc(C)o4)CC3)nc2n1CC(=O)Nc1ccc(C(F)(F)F)cc1Cl`, in assay [1], the IC50 is 9.22 nM. The same measure, in the same setting: the result for `CCc1c(N2CCN(C(=O)c3ncnc(C)c3O)CC2)c(=O)n2nc(C#CC3CCOCC3)nc2n1CC(=O)Nc1ccc(C(F)(F)F)cc1Cl` reads 18.4 nM; that for `CCc1c(N2CCN(C(=O)c3ncnc(C)c3O)CC2)c(=O)n2nc(C3=CCC(OC(=O)N(C(C)C)C(C)C)CC3)nc2n1CC(=O)Nc1ccc(C(F)(F)F)cc1Cl` (stereo not shown), 6.9 nM. For `CCc1c(N2CCN(C(=O)c3ncnc(C)c3S)CC2)c(=O)n2nc(C3=CCOCC3)nc2n1CC(=O)Nc1ccc(C(F)(F)F)cc1Cl`, the IC50 in assay [1] came to 9.46 nM. Still for that read-out and setting: the result for `CCc1c(N2CCN(C(=O)c3ncnc(C)c3O)CC2)c(=O)n2nc(C3=CCOCC3)nc2n1CC(=O)Nc1ccc(C(F)(F)F)c2ocnc12` reads 5.44 nM; that for `CCc1c(N2CCN(C(=O)c3ncnc(C)c3O)CC2)c(=O)n2nc(C3=CC4(CCC4)OCC3)nc2n1CC(=O)Nc1ccc(C(F)(F)F)cc1Cl`, 3.2 nM. The same measure, in the same setting: with `CCc1c(N2CCN(C(=O)c3ncnc(C)c3O)CC2)c(=O)n2nc(C3=CCC4(CC3)CCN(C)C(=O)O4)nc2n1CC(=O)Nc1ccc(C(F)(F)F)cc1Cl` (racemic) the figure was 5.5 nM; with `[2H]C1([2H])C=C(c2nc3n(CC(=O)Nc4ccc(C(F)(F)F)cc4Cl)c(CC)c(N4CCN(C(=O)c5ncnc(C)c5O)CC4)c(=O)n3n2)CCC([2H])([2H])O1`, 3.26 nM; with `CCc1c(N2CCN(C(=O)c3ncnc(C)c3O)CC2)c(=O)n2nc(C3=CCOCC3)nc2n1CC(=O)Nc1ccc(C(F)(F)F)c2c1COC2`, 7.87 nM. Turning to `CCc1c(N2CCN(C(=O)c3ncnc(C)c3O)CC2)c(=O)n2nc(C3=CCC4(CC3)COC(=O)N(C)C4)nc2n1CC(=O)Nc1ccc(C(F)(F)F)cc1Cl` (racemic), in assay [1], the IC50 was determined as 25.1 nM.

Regarding `CCc1c(N2CCN(C(=O)c3ncnc(C)c3O)CC2)c(=O)n2nc(C3=CCC(N4CCCOC4=O)CC3)nc2n1CC(=O)Nc1ccc(C(F)(F)F)cc1Cl` (stereo not shown), the IC50 in assay [1] came out at 5.57 nM. Same read-out and setting: the result for `CCc1c(N2CCN(C(=O)c3ncnc(C)c3O)CC2)c(=O)n2nc(C3=CCOCCC3)nc2n1CC(=O)Nc1cc(C(F)(F)F)sc1C` reads 1.93 nM.

On to `CCc1c(N2CCN(C(=O)c3ncnc(C)c3O)CC2)c(=O)n2nc(C3=CCOCC3)nc2n1CC(=O)Nc1csc(C(F)(F)F)c1`, for which the IC50 in assay [1] was found to be 5.23 nM. Regarding `CCc1c(N2CCN(C(=O)c3ncnc(C)c3O)CC2)c(=O)n2nc(C3=CCC4(CC3)CC4)nc2n1CC(=O)Nc1ccc(C(F)(F)F)cc1Cl`, the IC50 in assay [1] was 8.4 nM.
